For the data set, the system named is human red blood cells (RBCs).

For the substance Poly(guanylurea piperazine) [PGU-P-8K], the HC50 stood at 394 µg/mL.
With Poly(guanylurea piperazine) [PGU-P-3K] the figure was more than 2000 µg/mL; with Poly(guanylurea piperazine) [PGU-P-14K], 504 µg/mL.

As a reminder, the HC50 is the concentration giving 50% haemolysis.

The values are drawn from patent US10017462B1, “Antimicrobial poly(guanylurea)s” (THE FLORIDA INTERNATIONAL UNIVERSITY BOARD OF TRUSTEES, priority 2018, dated 2018).
